Consider 14 compounds from PMC9421653 (Journal of Medicinal Chemistry, 2022).

Chains of the proteins cited; added tags and fusions are not shown. Lines headed by an entry give the natural chain unless they say otherwise; changes in a name come on top.
UniProt P04899: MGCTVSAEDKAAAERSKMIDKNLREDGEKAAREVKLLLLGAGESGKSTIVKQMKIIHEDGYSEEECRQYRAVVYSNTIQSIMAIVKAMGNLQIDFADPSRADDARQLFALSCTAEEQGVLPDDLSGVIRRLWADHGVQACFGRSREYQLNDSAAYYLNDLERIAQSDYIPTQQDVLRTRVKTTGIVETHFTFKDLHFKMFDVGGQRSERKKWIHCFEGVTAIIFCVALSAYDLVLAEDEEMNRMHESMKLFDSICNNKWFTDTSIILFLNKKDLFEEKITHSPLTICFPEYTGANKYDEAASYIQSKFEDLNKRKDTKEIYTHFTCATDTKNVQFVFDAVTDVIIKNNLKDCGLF
UniProt Q9NQS5: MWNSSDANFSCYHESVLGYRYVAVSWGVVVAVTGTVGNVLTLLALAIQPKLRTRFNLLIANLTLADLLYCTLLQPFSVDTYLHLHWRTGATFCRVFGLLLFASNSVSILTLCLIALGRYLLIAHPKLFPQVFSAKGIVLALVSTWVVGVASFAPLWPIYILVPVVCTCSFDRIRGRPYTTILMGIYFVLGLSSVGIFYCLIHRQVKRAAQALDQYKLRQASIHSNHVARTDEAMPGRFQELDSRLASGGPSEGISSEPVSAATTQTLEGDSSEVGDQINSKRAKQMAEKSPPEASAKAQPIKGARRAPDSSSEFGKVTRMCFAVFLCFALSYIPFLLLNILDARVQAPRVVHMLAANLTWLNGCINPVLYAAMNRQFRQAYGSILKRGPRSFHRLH

The target of the assay is T1, human GPR84 (Homo sapiens, UniProt P04899+Q9NQS5).
T1 construct: expressed in transfected cells; host or cells: Flp-In T-REx 293 cells, doxycycline-induced; membrane preparations
In kind it is biochemical. The following applies: LLE = pIC50 – CLog P.
For `CN(C)CCNC(=O)c1ccc(-c2nnc(Cc3c[nH]c4ccccc34)nc2-c2ccccc2)cc1` [Compound 75, 4-(3-((1H-Indol-3-yl)methyl)-5-phenyl-1,2,4-triazin-6-yl)-N-(2-(dimethylamino)ethyl)benzamide], the LLE is given as 1.64.

As for `CN(C)Cc1ccc(-c2nnc(Cc3c[nH]c4ccccc34)nc2-c2ccccc2)cc1` [Compound 44, 1-(4-(3-((1H-Indol-3-yl)methyl)-5-phenyl-1,2,4-triazin-6-yl)phenyl)-N,N-dimethylmethanamine], the LLE is 2.28. Next, `CN(C)Cc1ccc(-c2nc(Cc3c[nH]c4ccccc34)nnc2-c2ccccc2)cc1` [Compound 43, 1-(4-(3-((1H-Indol-3-yl)methyl)-6-phenyl-1,2,4-triazin-5-yl)phenyl)-N,N-dimethylmethanamine]: 1.8. In the case of `COc1ccc(-c2nnc(Cc3c[nH]c4ccc(F)cc34)nc2-c2ccc(OC)cc2)cc1` [Compound 12, 3-((5,6-Bis(4-methoxyphenyl)-1,2,4-triazin-3-yl)methyl)-5-fluoro-1H-indole] it was 1.91; in that of `NC(=O)CNC(=O)c1ccc(-c2nnc(Cc3c[nH]c4ccccc34)nc2-c2ccccc2)cc1` [Compound 81, 4-(3-((1H-Indol-3-yl)methyl)-5-phenyl-1,2,4-triazin-6-yl)-N-(2-amino-2-oxoethyl)benzamide], 3.43; in that of `c1ccc(-c2nnc(Cc3c[nH]c4cnccc34)nc2-c2cnccn2)cc1` [Compound 59, 3-((6-Phenyl-5-(pyrazin-2-yl)-1,2,4-triazin-3-yl)methyl)-1H-pyrrolo[2,3-c]pyridine], 3.93. Next, `c1csc(-c2nnc(Cc3c[nH]c4ccccc34)nc2-c2cccs2)c1` [Compound 11, 3-((5,6-Di(thiophen-2-yl)-1,2,4-triazin-3-yl)methyl)-1H-indole]: 3.25.

In the case of `CC(=O)NCc1ccc(-c2nc(Cc3c[nH]c4ccccc34)nnc2-c2ccccc2)cc1` [Compound 45, N-(4-(3-((1H-Indol-3-yl)methyl)-6-phenyl-1,2,4-triazin-5-yl)benzyl)acetamide], the LLE is 3.56. In the case of `CN1CCN(C(=O)c2ccc(-c3nnc(Cc4c[nH]c5ccccc45)nc3-c3ccccc3)cc2)CC1=O` [Compound 80, 4-(4-(3-((1H-Indol-3-yl)methyl)-5-phenyl-1,2,4-triazin-6-yl)benzoyl)-1-methylpiperazin-2-one] it was 2.91. In the case of `CNC(=O)c1ccc(-c2nnc(Cc3c[nH]c4ccccc34)nc2-c2ccccc2)cc1` [Compound 73, 4-(3-((1H-Indol-3-yl)methyl)-5-phenyl-1,2,4-triazin-6-yl)-N-methylbenzamide] it was 3.69; in that of `c1ccc(-c2nnc(Cc3c[nH]c4cnccc34)nc2-c2ccnnc2)cc1` [Compound 61, 3-((6-Phenyl-5-(pyridazin-4-yl)-1,2,4-triazin-3-yl)methyl)-1H-pyrrolo[2,3-c]pyridine], 4.78. Next, `Fc1ccc(-c2nnc(Cc3c[nH]c4ccccc34)nc2-c2ccc(F)cc2)cc1` [Compound 5, 3-((5,6-Bis(4-fluorophenyl)-1,2,4-triazin-3-yl)methyl)-1H-indole]: 2.96. Take `COc1ccc(-c2nnc(Cc3n[nH]c4ccccc34)nc2-c2ccc(OC)cc2)cc1` [Compound 14, 3-((5,6-Bis(4-methoxyphenyl)-1,2,4-triazin-3-yl)methyl)-1H-indazole]: the LLE is 2.49. `c1ccc(-c2nnc(Cc3c[nH]c4ccccc34)nc2-c2ccccn2)nc1` [Compound 8, 3-((5,6-Di(pyridin-2-yl)-1,2,4-triazin-3-yl)methyl)-1H-indole] had an LLE of 3.51.
